By UniProt entry, the sequences of proteins in these tests, tags left out. Residues count along the entry.
UniProt P25774, 115-331 limits assumed: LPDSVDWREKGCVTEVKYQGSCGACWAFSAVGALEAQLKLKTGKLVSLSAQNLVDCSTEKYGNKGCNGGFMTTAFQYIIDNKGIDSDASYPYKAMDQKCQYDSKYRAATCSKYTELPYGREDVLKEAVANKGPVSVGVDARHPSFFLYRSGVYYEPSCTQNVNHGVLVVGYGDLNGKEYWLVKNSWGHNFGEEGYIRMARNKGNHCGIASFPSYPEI
UniProt P43235, 115-329 limits assumed: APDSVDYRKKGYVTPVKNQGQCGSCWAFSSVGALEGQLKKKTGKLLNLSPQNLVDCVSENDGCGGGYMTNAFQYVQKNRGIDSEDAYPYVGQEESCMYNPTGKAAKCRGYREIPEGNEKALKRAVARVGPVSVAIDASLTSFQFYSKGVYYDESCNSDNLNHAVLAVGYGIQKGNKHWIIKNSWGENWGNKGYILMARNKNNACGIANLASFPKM
UniProt P07711, 114-333 limits assumed: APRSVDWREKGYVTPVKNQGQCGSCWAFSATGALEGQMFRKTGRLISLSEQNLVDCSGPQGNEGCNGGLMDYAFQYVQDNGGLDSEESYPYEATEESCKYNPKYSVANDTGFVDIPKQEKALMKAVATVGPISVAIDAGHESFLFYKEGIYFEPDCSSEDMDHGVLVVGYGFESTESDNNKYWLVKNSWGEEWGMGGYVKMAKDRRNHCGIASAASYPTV

According to patent US8859505B2, “Cysteine protease inhibitors” (Medivir UK Ltd, priority 2010, dated 2014):

How the values were obtained:
human cathepsin S = human cathepsin S (Homo sapiens, UniProt P25774); experiment: Cathepsin S Ki determination; details: read-out: Ki Cat. S; baculovirus-expressed enzyme, boc-Val-Leu-Lys-AMC substrate, pH 6.5
[1] = biological target: human recombinant cathepsin K (Homo sapiens, UniProt P43235); experiment: Determination of cathepsin K proteolytic catalytic activity (Ki); details: read-out: Ki Cat. K; fluorogenic substrate H-D-Ala-Leu-Lys-AMC
human cathepsin L = human cathepsin L (Homo sapiens, UniProt P07711); experiment: Cathepsin L Ki; details: read-out: Ki Cat. L; H-D-Val-Leu-Lys-AMC substrate, pH5.5

Row | Ki (human cathepsin S) [nM] | Ki [1] [nM] | Ki (human cathepsin L) [nM] | SMILES
1 | 9.7 | 7500 | 18000 | NC(=O)C(=O)C1(NC(=O)[C@H](CC2(F)CCCC2)NC(=O)C2CC2)CCCC1
2 | 19 | 220 | 4300 | CC(C)(C)C[C@H](NC(=O)C(C)(C)F)C(=O)NC1(C(=O)C(N)=O)CCC1
3 | 8.3 | 510 | 9700 | CC(C)(C)C[C@H](NC(=O)OC(C)(C)C)C(=O)NC1(C(=O)C(N)=O)CCC1
